In ChEMBL document CHEMBL2440012, “Design, synthesis and anticonvulsant properties of new N-Mannich bases derived from 3-phenylpyrrolidine-2,5-diones” (Bioorg Med Chem, 2013):

System: Mus musculus
Assay: Protection index, ratio of TD50 for neurotoxicity in ip dosed albino CF1 mouse by rotorod test to ED50 for anticonvulsant activity in ip dosed albino CF1 mouse by 6 Hz psychomotor seizure test
Format: functional

In the case of `CC[C@@H](C(N)=O)N1CCCC1=O`, the “Ratio TD50/ED50” value was >25.77.
